Sequences of proteins named here, by UniProt entry; tags and fusion partners are left off. Residues count along the entry.
UniProt R9X0I6, 1-388: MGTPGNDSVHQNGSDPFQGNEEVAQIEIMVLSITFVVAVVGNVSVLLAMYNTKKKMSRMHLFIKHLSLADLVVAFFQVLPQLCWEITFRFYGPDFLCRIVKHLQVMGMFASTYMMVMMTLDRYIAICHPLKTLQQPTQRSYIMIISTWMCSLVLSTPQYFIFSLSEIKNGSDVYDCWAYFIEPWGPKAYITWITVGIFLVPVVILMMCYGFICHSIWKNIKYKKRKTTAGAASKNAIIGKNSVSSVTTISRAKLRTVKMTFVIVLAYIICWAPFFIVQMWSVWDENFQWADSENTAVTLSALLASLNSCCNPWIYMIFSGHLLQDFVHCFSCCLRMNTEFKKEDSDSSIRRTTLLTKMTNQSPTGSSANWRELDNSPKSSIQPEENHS

In article PMC10454913, “Neurohypophysial and paracrine vasopressinergic signaling regulates aquaporin trafficking to hydrate marine teleost oocytes” (Frontiers in Endocrinology, 2023):

Target: seabream Avpr1aa (Sparus aurata, UniProt R9X0I6)
Test: Activation of seabream Avpr1aa in transfected HEK293T cells (pCRE-luc / pSRE-luc reporters, Fluo-4 AM Ca2+)
Assay type: cell-based, gilthead seabream (Sparus aurata)
Conditions: antagonist 10^-12 to 10^-5 M before 10^-8 M Avp

## COc1cc(OC2CCN(C(C)=O)CC2)ccc1C(=O)N1CCC(N2C(=O)OCc3ccccc32)CC1 [L-371,257, 1-(1-[4-[(N-acetyl-4-piperidinyl)oxy]-2-methoxybenzoyl]piperidin-4-yl)-4H-3,1-benzoxazin-2(1H)-one]
  effect on Avpr1aa activation: no effect
